Amino acid sequences for entries named in this document (tags omitted). Residues count along the entry.
UniProt Q13231, 22-466: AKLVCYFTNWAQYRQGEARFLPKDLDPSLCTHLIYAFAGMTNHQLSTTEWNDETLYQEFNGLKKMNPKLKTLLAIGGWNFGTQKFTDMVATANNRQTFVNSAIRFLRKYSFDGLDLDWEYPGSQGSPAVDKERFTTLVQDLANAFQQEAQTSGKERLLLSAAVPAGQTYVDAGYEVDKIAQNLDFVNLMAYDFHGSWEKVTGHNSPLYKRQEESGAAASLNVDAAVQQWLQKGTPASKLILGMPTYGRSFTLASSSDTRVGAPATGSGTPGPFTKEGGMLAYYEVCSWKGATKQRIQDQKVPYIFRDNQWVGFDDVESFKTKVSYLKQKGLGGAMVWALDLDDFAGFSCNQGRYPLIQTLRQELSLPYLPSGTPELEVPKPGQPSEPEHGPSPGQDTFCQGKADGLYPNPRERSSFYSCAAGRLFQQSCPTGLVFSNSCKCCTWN

In patent publication US10538508B2 (dated 2020):

Target: recombinant human CHIT1 (Homo sapiens (Human), UniProt Q13231)
Test: Human CHIT1 Activity Assay
Format: biochemical
Settings: read-out: Activity on hCHIT1, IC50; recombinant human CHIT1, citrate buffer pH 5.2, 37° C., 60 minutes

Work on `CS(=O)(=O)N1C[C@H](Cc2ccc(Cl)cc2)N(C2CCN(c3nnc(N)[nH]3)CC2)C[C@@H]1Cc1ccc(Cl)cc1` [Example 36, 5-(4-((2S,5S)-2,5-bis(4-chlorobenzyl)-4-(methylsulfonyl)piperazin-1-yl)piperidin-1-yl)-4H-1,2,4-triazol-3-amine] yielded an IC50 of 10 to 100 µM.
